# From patent US20260215418A1, “HYDROCARBON ALCOHOLS AND THEIR DERIVATIVES AS SYNERGISTS IN PESTICIDE ACTIVITY” (priority 2022, published 2026)
# Tested on: Blatta orientalis
# Details: Table 37, 48 h, concentrations in mg/ml in label
# Description: Method: Contact test on non-porous tile measuring 400 cm^2 at a temperature of 28° C. Test duration: up to 72 hours after exposure of the insect to the insecticidal active substance.
# Three tests were performed in parallel, A, B, and C, as follows: • A) Comparative. 1 ml of Composition 2 was applied to the tile. After waiting for the complete evaporation of the solvent, 10 cockroaches were placed on top of the treated tile, starting the test. • B) According to the invention. 1 ml of Composition 8b was distributed on the tile. After waiting for the complete evaporation of the solvent, 1 ml of Composition 2 was added to the same tile. Subsequently, after waiting for the solvent to evaporate, 10 cockroaches were placed on top of the treated tile, starting the test. • C) According to the invention. 1 ml of Composition 8b was distributed on a tile. After waiting for the complete evaporation of the solvent, 10 cockroaches were placed for 30 minutes on top of the treated tile. At the end of the 30 minutes, the cockroaches were transferred to an untreated area.
# Method: Contact test on non-porous tile measuring 400 cm^2 at a temperature of 28° C. Test duration: up to 120 hours after exposure of the insect to the insecticidal active substance.
# Three tests were performed in parallel, A, B, and C, as follows: • A) Comparative. 1 ml of Composition 4a was applied to the tile. […]
substance,measurement,value
Oleic alcohol [Oleic alcohol 85% (2.96)],Mortality %/time (h) (application),0/48 ^ %
